Experimental data: patent US12123051B2, “Nucleic acid ratio determination” (priority 2017, dated 2024)
Where two headings read alike, the source gives them in different places.

Experiments:
Type in all cases: cell-based
[1] = test system: Chlamydia trachomatis (serovar D) in HEp-2 cells; assay: VITA PCR (duplex RT-PCR, one GAT omp1 and NED infAIGR), Treatment Protocol A; settings: added 4 h PI, harvested 44 h PI, TR 1
[2] = test system: Chlamydia trachomatis (serovar D) in HEp-2 cells; assay: Antibiotic susceptibility testing by VITA PCR, azithromycin, Treatment Protocol B
Protocol: The levels of GAT and NED were estimated and used to calculate VITA Index.
(§1) The ΔCt was calculated as the differences between the Ct values of the NED and GAT1/2 signals.
To measure NED, another region of Chlamydia DNA was co-amplified in the same RT-PCR using primers targeting a region of genomic DNA which is not transcribed. The levels of GAT and NED were estimated and used to calculate VITA Index.
as §1

[3] = test system: Chlamydia trachomatis (serovar D) in HEp-2 cells; assay: Antibiotic susceptibility testing by VITA PCR, dose dependent response, Treatment Protocol D; settings: 1 h PT
Protocol: After infection, there was no change of media at the 4 h time point.
Further to this the VITA Indices of treated and untreated samples were used to calculate the ΔVITA Ratio.
as §1
To measure NED, another region of Chlamydia DNA was co-amplified in the same RT-PCR using primers targeting a region of genomic DNA which is not transcribed. […] Further to this the VITA Indices of treated and untreated samples were used to calculate the ΔVITA Ratio.
(§2) Partzyme oligonucleotides, Reporter substrates and PCR primers used for amplification and detection of GAT1, GAT2 and NED were as per example 9 (9.1, 9.2 and 9.3 respectively). The RT-PCR conditions used were as described in Example 9 (9.5) and reactions contained either 5 μL of TNA template (1/1000 dilution) or no target (dH2O).
as §1

[4] = test system: Chlamydia trachomatis strains 1-5 in HEp-2 cells; settings: one hour PT
Protocol: After infection, there was no change of media at the 4 h time point. Once in an exponential growth phase, 20 hours PI, cells were treated with a single dose of different antibiotics. […] Strains used for this treatment protocol were Strain 1) serovar D lab strain (UW-3/Cx), Strain 2) serovar L2 wild type lab strain (434/Bu), Strain 3) serovar L2 lab created mutant strain, resistant to trimethoprim, Strain 4) serovar L2 lab created mutant strain, resistant to Spectinomycin and Strain 5) serovar L2 lab created mutant strain, resistant to Rifampicin. […] Samples were then incubated at 37° C. with 5% CO2 and harvested at 1 hour PT, using SPG buffer and extracted immediately. Two biological replicates were obtained for each condition.
The following example analyses the susceptibility of bacteria to a given drug, by estimation of the change of GAT levels relative to NED in TNA samples. These were then compared between samples treated with antibiotic and not treated (control). […] Treatment was as described in example 1, Treatment E (1.1.5). To obtain a measure GAT, Chlamydia DNA and RNA was amplified by RT-PCR using primers targeting two different locations of the omp1 gene and its transcripts. To measure NED, another region of Chlamydia DNA was co-amplified in the same RT-PCR using primers targeting a region of genomic DNA which is not transcribed. The levels of GAT and NED were estimated and used to calculate VITA Index. Further to this the VITA Indices of treated and untreated samples were used to calculate the ΔVITA Ratio.
as §2
Chlamydia DNA and RNA from 2 GAT regions and one NED region, were co-amplified and detected in single RT-PCR from TNA extracted from chlamydia cultures. These cultures were treated with antibiotic or left untreated (control) at an exponential growth phase and harvested at 1 hour post treatment. […] The ΔCt was calculated as the differences between the Ct values of the NED and GAT1/2 signals.
The following example analyses the susceptibility of bacteria to a given drug, by estimation of the change of GAT levels relative to NED in TNA samples. These were then compared between samples treated with antibiotic and not treated (control). […]
Chlamydia DNA and RNA from 2 GAT regions and one NED region, were co-amplified and detected in single RT-PCR from TNA extracted from chlamydia cultures. […] The ΔCt was calculated as the differences between the Ct values of the NED and GAT1/2 signals.

[5] = test system: Chlamydia trachomatis (serovar D) in HEp-2 cells; assay: VITA PCR (triplex) with long GAT1 and GAT2 amplicons, Treatment Protocol A; settings: added 4 h PI, harvested 44 h PI, TR 2

Q: With `CC[C@H]1OC(=O)[C@H](C)[C@@H](O[C@H]2C[C@@](C)(OC)[C@@H](O)[C@H](C)O2)[C@H](C)[C@@H](O[C@@H]2O[C@H](C)C[C@H](N(C)C)[C@H]2O)[C@](C)(O)C[C@@H](C)CN(C)[C@H](C)[C@@H](O)[C@]1(C)O` [Azithromycin] as the compound, how does the “VITA Index” value ([1]; <MIC (0.008 μg/mL)) read?
A: 2.77

Q: What about the “VITA Index” value ([1]; >MIC (0.512 μg/mL)) of the same compound?
A: 1.51

Q: And the “VITA Index” value ([1]; MIC (0.064 μg/mL))?
A: 1.49

Q: And the “VITA Index” value ([2]; Example 7: plus antibiotic 0.128 μg/mL at 24 h PI, 1 h PT)?
A: 5.78

Q: What about the “VITA Index” value ([2]; Example 7: plus antibiotic 0.128 μg/mL at 24 h PI, 6 h PT) of the same compound?
A: 14.35

Q: And the “VITA Index” value ([2]; Example 8: plus antibiotic 0.128 μg/mL at 24 h PI, 30 min PT)?
A: 94

Q: And the “VITA Index” value ([2]; Example 8: plus antibiotic 0.128 μg/mL at 24 h PI, 1 h PT)?
A: 49.20

Q: And the “VITA Index” value ([3]; Example 10 (Extraction Protocol A, 24 h PI): dose 1 (0.128 μg/mL))?
A: 89.28

Q: And the “VITA Index” value ([3]; Example 10 (Extraction Protocol A, 24 h PI): dose 2 (0.192 μg/mL))?
A: 70.74

Q: And the “VITA Index” value ([3]; Example 10 (Extraction Protocol A, 24 h PI): dose 3 (0.256 μg/mL))?
A: 28.91

Q: And the “VITA Index” value ([3]; Example 11 (Extraction Protocol B, 20 h PI): dose 1 (0.128 μg/mL))?
A: 4.47

Q: And the “VITA Index” value ([3]; Example 11 (Extraction Protocol B, 20 h PI): dose 2 (0.192 μg/mL))?
A: 4.18

Q: And the “VITA Index” value ([3]; Example 11 (Extraction Protocol B, 20 h PI): dose 4 (0.512 μg/mL))?
A: 3.35

Q: And the “VITA Index” value ([4]; Table 12a: Strain 1, plus antibiotic 0.256 μg/mL)?
A: 3.95

Q: What about the “VITA Index” value ([4]; Table 12a: Strain 2, plus antibiotic 0.256 μg/mL) of the same compound?
A: 4.27

Q: And the “VITA Index” value ([4]; Table 12a: Strain 3, plus antibiotic 0.256 μg/mL)?
A: 5.66

Q: What about the “VITA Index” value ([4]; Table 12a: Strain 5, plus antibiotic 0.256 μg/mL) of the same compound?
A: 5.50

Q: And the “VITA Index” value ([5]; <MIC (0.008 μg/mL))?
A: 1.53

Q: And the “VITA Index” value ([5]; >MIC (0.512 μg/mL))?
A: 0.40

Q: And the “VITA Index” value ([5]; MIC (0.064 μg/mL))?
A: 0.61
